In patent US8344145B2, “Salts of 2-substituted quinolines” (priority 2008, dated 2013):
Read-outs that look alike come from different tables or passages of the source.

Tests used:
[1] = test system: female CD-1 mice; details: 5 animals
Procedure: (§1) 250 mg of carboxymethylcellulose are dissolved in 50 ml of a 5% glucose solution. 5 ml aliquots containing 0.5% of Tween 80 are emulsified with the quinoline salts (final concentrations at 0.4 mg/ml, 4 mg/ml and 40 mg/ml). The emulsions are subsequently homogenized. The emulsions are administered by force feeding in a single dose to four groups of five female CD-1 mice at the concentrations of 10 mg/kg, 100 mg/kg and 1000 mg/kg and without compounds (control group). The control group receives a glucose-comprising emulsion containing 0.5% of carboxymethyl-cellulose (CMC) and […]. The behavior of the animals is observed and the number of deaths is counted after 1 min, 15 min, 30 min, 1 h, 4 h, 8 h and each day for 14 days. On the final day, a blood sample is taken. Biochemical analyses are carried out in order to evaluate the nephrotoxicity and the hepatotoxicity, the levels of creatinine, of aspartate aminotransferase (ASAT), of alanine aminotransferase (ALAI) and of cholesterol being quantitatively determined.

[2] = test system: female CD-1 mice; assay: Acute toxicity: blood biochemical parameters on the final day (nephrotoxicity, hepatotoxicity); details: blood sample on final day (day 14)
Procedure: as §1

With “Camphorsulfonate salt of 2-(hydroxyprop-2-enyl)quinoline” as the substance, how does the acute toxicity observation ([1]; single dose 10 mg/kg oral route) read?
The acute toxicity observation was “absence of toxicity”.

What about the acute toxicity observation ([1]; single dose 100 mg/kg oral route) of the same substance?
The acute toxicity observation was “absence of toxicity”.

What about the “mice with bristling hair” value ([1]; single dose 1 g/kg oral route, t15 min) of the same substance?
The value was “t15 min - 1 mouse had”.

What about the acute toxicity observation ([1]; single dose 1 g/kg oral route, t1 h) of the same substance?
Its acute toxicity observation is “t1 h - absence of toxicity”.

What about the ALAT ([2]; dose 10 mg/kg oral) of the same substance?
The ALAT was 223 ± 74 IU/l.

And the ASAT ([2]; dose 10 mg/kg oral)?
The ASAT was 337 ± 80 IU/l.

What about the Cholesterol ([2]; dose 10 mg/kg oral) of the same substance?
Its Cholesterol is 3.9 ± 0.3 mM.

What about the Creatinine ([2]; dose 10 mg/kg oral) of the same substance?
The Creatinine was under 18 µM.

And the ALAT ([2]; dose 100 mg/kg oral)?
Its ALAT is 247 ± 76 IU/l.

What about the ASAT ([2]; dose 100 mg/kg oral) of the same substance?
The ASAT was 397 ± 202 IU/l.

What about the Cholesterol ([2]; dose 100 mg/kg oral) of the same substance?
Its Cholesterol is 4.6 ± 0.5 mM.

What about the Creatinine ([2]; dose 100 mg/kg oral) of the same substance?
Its Creatinine is under 18 µM.

And the ALAT ([2]; dose 1 g/kg oral)?
The ALAT was 260 ± 131 IU/l.

What about the ASAT ([2]; dose 1 g/kg oral) of the same substance?
Its ASAT is 388 ± 70 IU/l.

And the Cholesterol ([2]; dose 1 g/kg oral)?
Its Cholesterol is 3.4 ± 0.6 mM.

And the Creatinine ([2]; dose 1 g/kg oral)?
The Creatinine was 20.7 ± 3.1 µM.
